Data as given in paper PMC6610660 (Structure (London, England : 1993), 2019).

Amino acid sequences for entries named in this document (tags omitted). A change or cut given only in a name is not applied to a line headed by its entry.
UniProt Q9GZZ1: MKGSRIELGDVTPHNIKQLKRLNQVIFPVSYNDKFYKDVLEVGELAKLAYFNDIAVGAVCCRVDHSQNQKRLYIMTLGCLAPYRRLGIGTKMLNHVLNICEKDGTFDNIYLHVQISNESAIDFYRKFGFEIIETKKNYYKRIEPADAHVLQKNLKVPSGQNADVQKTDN

Target: hNaa50 (Homo sapiens, UniProt Q9GZZ1)
Details: 20 °C, pH 7.0, 200 mM NaCl, 1 mM DTT

Q: With `CC(=O)SCCNC(=O)CCNC(=O)[C@H](O)C(C)(C)COP(=O)(O)OP(=O)(O)OC[C@H]1O[C@@H](n2cnc3c(N)ncnc32)[C@H](O)[C@@H]1OP(=O)(O)O` [acetyl-CoA] as the compound, how does the ITC read?
A: Using ITC, we were able to detect acetyl-CoA binding to hNaa50
